Read-outs that look alike come from different tables or passages of the source.
Key:
[1] = target: hMC4R (Homo sapiens), P32245; details: modification not given
[2] = target: hMC4R (Homo sapiens), P32245; details: modification not given; remark: listed apart in the source

Kd [1] [nM] | Kd [2] [nM] | Binder
38 |  | SYSMEHFRWGKPV [Eu(III)-DTPA-PEG9-NDP-α-MSH, P01189]
 | 49 | SYSMEHFRWGKPV [Eu(III)-DOTA-PEG9-NDP-α-MSH, P01189]
